This passage reports Activity results from ChEMBL document CHEMBL4350967, “The Trifluoromethyl Group as a Bioisosteric Replacement of the Aliphatic Nitro Group in CB1 Receptor Positive Allosteric Modulators” (J Med Chem, 2019).

Protein sequences, listed by entry. Tags and fused reporters are not part of them.
UniProt P21554, whole entry: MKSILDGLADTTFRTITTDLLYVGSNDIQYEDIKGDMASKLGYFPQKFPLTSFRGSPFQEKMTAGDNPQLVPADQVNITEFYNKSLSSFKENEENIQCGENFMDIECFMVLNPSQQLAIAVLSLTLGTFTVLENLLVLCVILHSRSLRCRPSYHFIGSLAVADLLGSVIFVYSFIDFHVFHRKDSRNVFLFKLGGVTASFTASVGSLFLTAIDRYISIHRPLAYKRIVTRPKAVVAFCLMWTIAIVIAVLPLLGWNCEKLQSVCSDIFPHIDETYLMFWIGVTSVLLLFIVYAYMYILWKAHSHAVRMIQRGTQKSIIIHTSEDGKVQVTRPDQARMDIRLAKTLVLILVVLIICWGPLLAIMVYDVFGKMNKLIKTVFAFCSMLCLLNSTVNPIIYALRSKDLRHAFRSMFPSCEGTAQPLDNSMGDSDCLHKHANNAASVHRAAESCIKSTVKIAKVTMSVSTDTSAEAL

Common to all, as to assay type: cell-based
The target in assay [1] is T1, Cannabinoid receptor 1 (Homo sapiens, UniProt P21554). Briefly: Positive allosteric modulation of human CB1 receptor expressed in CHOK1 cells assessed as increase in CP55940-induced beta-arrestin recruitment at 500 nM preincubated for 30 mins followed by CP55940 addition and measured after 90 to 180 mins by PathHunter assay relative to CP55940. (Arrestin recruitment assays detect the binding of arrestin to an activated receptor.)

Assay [2] has as its target T1, Cannabinoid receptor 1. Briefly: Positive allosteric modulation of human CB1 receptor expressed in CHOK1 cells assessed as increase in CP55940-induced beta-arrestin recruitment at 1000 nM preincubated for 30 mins followed by CP55940 addition and measured after 90 to 180 mins by PathHunter assay relative to CP55940.
The target of assay [3] is T1, Cannabinoid receptor 1. In words: Positive allosteric modulation of human CB1 receptor expressed in CHOK1 cells assessed as increase in CP55940-induced beta-arrestin recruitment at 200 nM preincubated for 30 mins followed by CP55940 addition and measured after 90 to 180 mins by PathHunter assay relative to CP55940.

`N#Cc1ccc2c([C@@H](CC(F)(F)F)c3cccs3)c(-c3ccccc3)[nH]c2c1`: the Activity at Cannabinoid receptor 1 [1] is over 50%. In the case of `N#Cc1ccc2c([C@H](CC(F)(F)F)c3cccs3)c(-c3ccccc3)[nH]c2c1`, on Cannabinoid receptor 1 [1], the Activity is over 50%.

On to `O=[N+]([O-])CC(c1cccs1)c1c(-c2ccccc2)[nH]c2cc(C(F)(F)F)ccc12` (racemic), for which the Activity on Cannabinoid receptor 1 [1] is over 50%.

`N#CCC(c1ccccc1)c1c(-c2ccccc2)[nH]c2cc(Cl)ccc12` (racemic): the Activity on Cannabinoid receptor 1 [2] was over 50%. Consider `N#Cc1ccc2c(C(CC(F)(F)F)c3cccs3)c(-c3ccccc3)[nH]c2c1` (racemic), for which, at Cannabinoid receptor 1 [3], the Activity is over 50%.
